# scFv variants of Ab-14 (light chain) against a SARS-CoV-2 spike peptide

From the AlphaSeq antibody data of Li et al. 2023 (doi:10.1038/s41467-023-39022-2), copy in the FLAb collection.

Target: peptide PDVDLGDISGINAS, taken from heptad repeat 2 (HR2) of SARS-CoV-2 spike.

Parent: Ab-14, a human scFv built as VH, a 15-residue (Gly4Ser)3 linker, VL. Only the CDRs of the light chain vary.
VH: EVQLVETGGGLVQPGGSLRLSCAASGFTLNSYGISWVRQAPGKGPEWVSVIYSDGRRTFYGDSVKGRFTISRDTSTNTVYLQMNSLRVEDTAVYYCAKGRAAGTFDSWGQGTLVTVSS
VL: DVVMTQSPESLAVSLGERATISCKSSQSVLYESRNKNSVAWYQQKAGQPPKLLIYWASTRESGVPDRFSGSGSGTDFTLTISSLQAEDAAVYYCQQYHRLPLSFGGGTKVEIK

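Phage display of a naive human antibody library on the peptide gave the parent. This is the validation round: designs drawn from the data on random variants, tested in the same kind of assay. Their group label is 14L_GP_HC (GP: Gaussian process model; HC: hill climbing; a sequence that several methods proposed may carry one label only). AlphaSeq pools MATa yeast showing the antibodies with MATalpha yeast showing the peptide. Pairs that bind mate more often; barcode pairs of the diploids are counted by sequencing. Read counts were normalised to the haploid input and turned into Kd by a linear fit to BCL2-family pairs of known affinity, for each replicate. Mating was done six times.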

Changes read parent residue, position, new residue, counted from the first residue of the VL shown. Values are log10 of the apparent Kd in nM; lower means stronger binding. Where no diploid with the target was found in that replicate, the entry reads "ND": below detection, most likely a poor binder, though not proof of it. Nonspecific signal, from three strains lacking the peptide, appeared in 4% of pairings of all light chain designs, centred on 2.64 (5% of these signals below 1.59); values are not corrected for it. Also given: how often the same scFv was detected with the empty control strains, with their mean in brackets. Values of this round are not directly comparable with the first-round values of the same sequences. The authors' rule: three or more of the six replicates give a measured affinity, fewer mean a poor binder.

changes	log10 Kd, replicates	control signals
V29F+K36V+W56N	0.09 / -0.21 / -0.34 / -0.44 / -0.33 / -0.06	0/18
S26L+V29T+K36F+W56H+S62D	0.23 / 0.12 / -0.05 / -0.21 / -0.14 / 0.17	0/18
S25A+S28V+V29Y+W56G	-0.26 / 0.06 / -0.02 / 0.12 / 0.10 / -0.08	2/18 (2.58)
S25Q+W56M+E61M+H98W	1.29 / 0.91 / 0.79 / 0.59 / 0.97 / 0.75	0/18
K24L+Q27I+V29Y+L30E+R34P+W56E	0.24 / 0.18 / 0.19 / 0.13 / 0.13 / 0.34	5/18 (2.65)
K24H+S25L+Q27P+L30E+W56N+T59S	0.12 / 0.20 / 0.34 / 0.14 / -0.11 / 0.15	1/18 (2.32)
S25Q+S28A+V29F+Y31T+W56D+S58N	-0.18 / -0.13 / -0.23 / -0.38 / -0.43 / 0.05	0/18
S25L+S26R+V29T+W56T	ND / 0.94 / ND / 1.15 / 1.90 / 1.44	0/18
S25V+Q27I+V29Y+Y31P+W56E	-0.04 / 0.11 / -0.07 / -0.10 / -0.28 / 0.18	1/18 (1.99)
S25L+S26L+W56N+S62D	0.33 / 0.04 / -0.06 / -0.18 / -0.20 / -0.15	1/18 (3.58)
K24D+S25I+V29W+W56G	0.18 / -0.21 / -0.13 / -0.16 / -0.32 / -0.22	0/18
K24S+S25L+S26M+V29Q+W56H+T59L+S62D	0.04 / -0.08 / -0.04 / -0.25 / -0.11 / -0.04	1/18 (2.28)
K24H+S25L+Q27D+V29M+W56N+S103N	0.19 / 0.05 / -0.06 / -0.06 / -0.04 / 0.23	0/18
K24D+Q27G+V29W+W56G	0.26 / 0.76 / 0.31 / -0.06 / 0.41 / -0.09	2/18 (1.92)
K24R+S25I+W56D	0.03 / 0.10 / 0.23 / -0.08 / -0.13 / 0.12	0/18
Y31P+E32Q+K36H+W56D	0.21 / 0.73 / 0.53 / -0.14 / -0.11 / 0.03	0/18
S26L+V29T+W56H+S62D	0.11 / 0.08 / 0.28 / -0.16 / 0.19 / 0.32	1/18 (3.29)
S25L+S26R+Q27M+V29T+W56G	-0.13 / -0.15 / -0.31 / -0.28 / -0.09 / -0.27	0/18
S25L+S26Q+S28Q+V29W+W56S	ND / ND / ND / ND / ND / ND	0/18
S25L+S26Q+S28G+V29A+W56G	-0.09 / -0.15 / -0.17 / -0.45 / -0.56 / -0.02	0/18
K24H+Q27P+L30E+W56N+T59D	ND / ND / ND / ND / ND / ND	0/18
S26A+Q27W+R34N+W56H+S62D	1.33 / 1.26 / 0.76 / 1.07 / 1.06 / 0.88	1/18 (2.68)
Q27I+V29Q+W56E	-0.16 / 0.38 / 1.00 / -0.19 / -0.07 / -0.03	0/18
S25V+V29W+R34G+N35T+W56N+T59S	0.25 / 0.15 / 0.06 / 0.00 / 0.00 / 0.17	2/18 (3.22)
S25L+S26Q+V29W+L30E+W56H	0.37 / 0.60 / 0.14 / -0.01 / 0.12 / 0.20	1/18 (3.61)
S25L+W56E+L102S	0.59 / 0.60 / -0.13 / 0.16 / -0.33 / -0.04	0/18
S25F+S33D+N35T+W56N	0.59 / 1.21 / 0.47 / 0.40 / 0.24 / 0.52	0/18
K24F+Q27I+V29Y+R34P+W56E	1.66 / 1.37 / 1.05 / 0.92 / 1.03 / 1.16	0/18
V29W+R34G+W56H	-0.12 / -0.15 / -0.03 / -0.55 / -0.20 / -0.13	1/18 (4.14)
K24H+Q27P+K36P+W56N	-0.59 / -0.49 / -0.67 / -0.57 / -0.71 / -0.40	1/18 (2.23)
S25L+S26P+S28G+W56G+T59L	-0.29 / -0.51 / -0.38 / -0.60 / -0.42 / -0.26	3/18 (3.70)
S25F+N35T+K36S+W56N	-0.30 / -0.54 / -0.39 / -0.50 / -0.51 / -0.36	3/18 (2.76)
S25F+N35V+W56N+Q96W	2.37 / ND / ND / ND / ND / ND	0/18
S25F+S28W+V29G+N35T+W56N	0.40 / 0.17 / 0.30 / 0.02 / 0.41 / 0.55	1/18 (1.71)
S26Q+V29Q+K36F+W56H+E61C+S62D	0.57 / 0.09 / -0.16 / -0.38 / 0.23 / 0.54	0/18
S25F+N35T+K36Y+W56N+E61Y	0.24 / 0.09 / 0.07 / 0.15 / 0.21 / 0.12	0/18
K24A+V29W+S33G+W56G+S62D	-0.09 / -0.30 / -0.38 / -0.50 / -0.20 / -0.21	2/18 (4.19)
S25A+V29F+W56G+Q96A	ND / 0.95 / 1.79 / 0.70 / 0.62 / 0.49	0/18
S26G+S28G+V29D+W56G+S103H	0.39 / 0.37 / 0.18 / 0.37 / 0.34 / 0.45	1/18 (1.95)

From the list, the first 2 with no signal in any replicate:

changes	log10 Kd, replicates	control signals
S25L+S26Q+S28Q+V29W+W56S	ND / ND / ND / ND / ND / ND	0/18
K24H+Q27P+L30E+W56N+T59D	ND / ND / ND / ND / ND / ND	0/18